Literature values as cited in US20070141059A1, “Use of cathepsin s inhibitors for treating an immune response caused by administration of a small molecule therapeutic or biologic” (AXYS Pharmaceuticals, Inc., priority 2003, published 2007).

Settings: patients taking the biologic

Referon®-A: biologic; biological agent that induces the production of specific immunoglobulins
patients generating neutralizing antibodies: 25%
